In publication PMC11647514:

Experiment: anti-pS4/S8 blot, Flag-RPA2 in 293T, 2 h after Eto
Details: glycan gained; control: Eto only

B1: Replication Protein A2 (RPA2, RPA32): Thiamet-G (TMG) (protein)
parent chain: MWNSGFESYGSSSYGGAGGYTQSPGGFGSPAPSQAEKKSRARAQHIVPCTISQLLSATLVDEVFRIGNVEISQVTIVGIIRHAEKAPTNIVYKIDDMTAAPMDVRQWVDTDDTSSENTVVPPETYVKVAGHLRSFQNKKSLVAFKIMPLEDMNEFTTHILEVINAHMVLSKANSQPSAGRAPISNPGMSEAGNFGGNSFMPANGLTVAQNQVLNLIKACPRPEGLNFQDLKNQLKHMSVSSIKQAVDFLSNEGHIYSTVDDDHFKSTDAE
other: RPA2 Ser4/Ser8 phosphorylation: decreases
